## OPERA 2.9 data: properties

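OPERA's authors assembled the values from existing databases and did not measure them anew. A listed value is a point estimate from one report or more. How each value was measured is not recorded, so precision varies. Where a salt, mixture or single isomer is drawn, the source does not say that exactly this form was tested. Some upstream entries may be estimates or bounds without being marked so.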

The melting point is given in degrees Celsius. Boiling points are in °C, nominally at 760 mmHg. logP is the log10 of the octanol-water partition coefficient; higher is more lipophilic. Solubility in water is on a log10 molar scale (set defined at 25 °C). Vapor pressures (log10 mmHg) refer to near room temperature, 15 to 30 °C; higher is more volatile. Henry's law constant (air-water partitioning) is log10 of atm·m3/mol, nominally at 25 °C. The unbound fraction in human plasma runs from 0 (all bound) to 1 (all free). Intrinsic clearance (human, µL/min per 10^6 hepatocytes): higher is faster turnover, and 0 stands for none detected. "–" marks a cell with nothing listed here.

| melting point (°C) | BP (°C) | logP (octanol/water) | log S (log10 mol/L) | log vapor pressure (log10 mmHg) | Henry's law constant (log10 atm·m3/mol) | fraction unbound | intrinsic clearance (µL/min/10^6 cells) | SMILES | name |
|---|---|---|---|---|---|---|---|---|---|
| – | – | – | -3.04 | – | – | 0.8 | – | O=C(O)CCCC[C@@H]1SC[C@@H]2NC(=O)N[C@@H]21 | Biotin |
| – | – | 0.95 | – | -9.82 | – | – | – | O=C(CCc1ccc(O)cc1)c1c(O)cc(O)cc1O[C@@H]1O[C@H](CO)[C@@H](O)[C@H](O)[C@H]1O | Phlorizin |
| 81 | – | – | -3.665 | -3.28 | – | – | – | C/C=C/c1ccc(OC(C)=O)c(OC)c1 | Isoeugenyl acetate, (E)- |
| – | – | 0.5 | 0.214 | 0.973 | – | – | – | CC(C)OCC1CO1 (centres undefined) | Isopropyl glycidyl ether |
| – | – | 4.616 | – | -6.73 | – | – | – | CCCCCCCCCCCCCCCCCCCCCC(=O)O | Docosanoic acid |
| 177.4 | – | – | -5.922 | – | – | – | – | CC(C)(C)c1cc(CCC(=O)NCCCNC(=O)CCc2cc(C(C)(C)C)c(O)c(C(C)(C)C)c2)cc(C(C)(C)C)c1O | – |
| – | – | – | -6.811 | -5.23 | – | – | – | CCCCOc1ccc(C2CCC(CCC)CC2)c(F)c1F (centres undefined) | 1-Butoxy-2,3-difluoro-4-(4-propylcyclohexyl)benzene |
| – | – | 3.84 | -3.152 | -0.444 | – | – | – | CCCCCCCCCCC=O | Undecanal |
| – | – | – | – | -7.824 | -6.899 | – | – | CC(C)c1cc(Oc2ccccc2)cc(C(C)C)c1NC(=S)NC(C)(C)C | Diafenthiuron |
| 55 | – | 1.6 | – | -3.137 | – | – | – | CC(C)N(C(=O)CO)c1ccc(F)cc1 | Acetamide, N-(4-fluorophenyl)-2-hydroxy-N-(1-methylethyl)- |
| – | – | 5.1 | – | – | – | 0.1165 | 0.723 | CNCCCC12CCC(c3ccccc31)c1ccccc12 | Maprotiline |
| -62.5 | – | 1.25 | – | – | – | – | – | C=C[Si](O/N=C(\C)CCC)(O/N=C(\C)CCC)O/N=C(\C)CCC | 2-Pentanone, O,O',O''-(ethenylsilylidyne)trioxime |
| – | 290 | – | -1.754 | – | – | – | – | Nc1ccc(Cl)c(S(=O)(=O)O)c1 | Benzenesulfonic acid, 5-amino-2-chloro- |
| 35 | – | 10.2 | – | -5.018 | – | – | – | CCCCCCCCCCCCCCCCCC(=O)OCCOC(C)=O | Acetylated glycol stearate |
| 285 | – | – | -7.981 | – | – | – | – | Cc1cc([N+](=O)[O-])ccc1N=Nc1c(O)c(C(=O)Nc2ccccc2C)cc2ccccc12 | – |
| -22 | – | – | -2.968 | -1.648 | – | – | – | C=C(C)C(=O)OCc1ccccc1 | Benzyl methacrylate |
| 207 | – | – | -2.663 | – | – | – | – | CC1=Nc2ccc(C(=O)O)cc2C1(C)C | 2,3,3-Trimethyl-3H-indole-5-carboxylic acid |
| – | – | 3.43 | – | -1.588 | – | – | – | CC1CCOC(c2ccccc2)C1 (centres undefined) | 4-Methyl-2-phenyltetrahydro-2H-pyran |
| 296 | – | – | -6.984 | – | – | – | – | COc1ccc(C=C2N=C(c3ccc(C4=NC(=Cc5ccc(OC)cc5)C(=O)O4)cc3)OC2=O)cc1 | – |
| 38.7 | – | – | – | -4.658 | – | – | – | CCCCCCCCCCCC(=O)N(CCO)CCO | N,N-Bis(2-hydroxyethyl)dodecanamide |
| 49.8 | – | – | -6.673 | -8.377 | – | – | – | CCCCOc1ccc(C2=CCC([C@H]3CC[C@H](CC)CC3)CC2)c(F)c1F (stereo partly specified) | – |
| – | – | 0.4 | – | 0.197 | – | – | – | CC1=C(O)C(=O)CC1 | Cyclotene |

2 of these entries, quoted again:

{"smiles": "O=C(O)CCCC[C@@H]1SC[C@@H]2NC(=O)N[C@@H]21", "name": "Biotin", "log S (log10 mol/L)": "-3.04", "fraction unbound": "0.8"}
{"smiles": "C/C=C/c1ccc(OC(C)=O)c(OC)c1", "name": "Isoeugenyl acetate, (E)-", "melting point (°C)": "81", "log S (log10 mol/L)": "-3.665", "log vapor pressure (log10 mmHg)": "-3.28"}

Source: data files of OPERA 2.9 (Mansouri et al.), github.com/kmansouri/OPERA.